From ChEMBL document CHEMBL1138708, “Synthesis of analogs of (1,4)-3- and 5-imino oxazepane, thiazepane, and diazepane as inhibitors of nitric oxide synthases” (Bioorg Med Chem Lett, 2004) come the findings set out here.

Protein sequences, listed by entry. Tags and fused reporters are not part of them.
UniProt P35228, whole entry: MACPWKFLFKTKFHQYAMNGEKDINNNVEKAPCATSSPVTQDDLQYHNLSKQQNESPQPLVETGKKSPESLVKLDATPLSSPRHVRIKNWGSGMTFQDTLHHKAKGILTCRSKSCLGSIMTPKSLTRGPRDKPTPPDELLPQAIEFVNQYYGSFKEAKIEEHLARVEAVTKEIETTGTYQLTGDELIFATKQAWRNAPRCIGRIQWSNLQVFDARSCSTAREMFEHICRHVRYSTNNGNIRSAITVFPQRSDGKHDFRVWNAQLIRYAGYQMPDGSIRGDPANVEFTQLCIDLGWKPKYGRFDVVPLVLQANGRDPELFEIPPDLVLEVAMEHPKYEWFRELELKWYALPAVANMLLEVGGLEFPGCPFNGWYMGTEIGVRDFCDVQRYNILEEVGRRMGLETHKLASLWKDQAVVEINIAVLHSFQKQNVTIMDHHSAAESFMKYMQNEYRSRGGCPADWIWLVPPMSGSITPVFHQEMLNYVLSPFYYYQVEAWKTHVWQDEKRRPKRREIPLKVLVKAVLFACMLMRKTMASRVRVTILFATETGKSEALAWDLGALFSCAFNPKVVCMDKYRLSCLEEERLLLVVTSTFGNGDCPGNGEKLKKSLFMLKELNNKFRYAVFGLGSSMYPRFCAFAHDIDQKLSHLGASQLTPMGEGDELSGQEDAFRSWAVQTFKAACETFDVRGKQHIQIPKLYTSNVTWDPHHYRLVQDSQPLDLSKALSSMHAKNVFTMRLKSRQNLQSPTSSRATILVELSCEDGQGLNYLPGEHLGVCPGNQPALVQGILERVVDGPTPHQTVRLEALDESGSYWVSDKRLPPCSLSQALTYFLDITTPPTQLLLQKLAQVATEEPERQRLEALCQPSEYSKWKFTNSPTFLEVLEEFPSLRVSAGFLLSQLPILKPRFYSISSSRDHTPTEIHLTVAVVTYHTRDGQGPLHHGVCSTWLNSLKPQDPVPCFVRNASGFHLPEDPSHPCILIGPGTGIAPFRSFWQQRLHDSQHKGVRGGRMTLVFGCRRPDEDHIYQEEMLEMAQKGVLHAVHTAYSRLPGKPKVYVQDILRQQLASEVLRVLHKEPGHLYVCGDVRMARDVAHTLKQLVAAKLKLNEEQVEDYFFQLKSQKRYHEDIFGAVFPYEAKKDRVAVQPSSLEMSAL
UniProt P29475, whole entry: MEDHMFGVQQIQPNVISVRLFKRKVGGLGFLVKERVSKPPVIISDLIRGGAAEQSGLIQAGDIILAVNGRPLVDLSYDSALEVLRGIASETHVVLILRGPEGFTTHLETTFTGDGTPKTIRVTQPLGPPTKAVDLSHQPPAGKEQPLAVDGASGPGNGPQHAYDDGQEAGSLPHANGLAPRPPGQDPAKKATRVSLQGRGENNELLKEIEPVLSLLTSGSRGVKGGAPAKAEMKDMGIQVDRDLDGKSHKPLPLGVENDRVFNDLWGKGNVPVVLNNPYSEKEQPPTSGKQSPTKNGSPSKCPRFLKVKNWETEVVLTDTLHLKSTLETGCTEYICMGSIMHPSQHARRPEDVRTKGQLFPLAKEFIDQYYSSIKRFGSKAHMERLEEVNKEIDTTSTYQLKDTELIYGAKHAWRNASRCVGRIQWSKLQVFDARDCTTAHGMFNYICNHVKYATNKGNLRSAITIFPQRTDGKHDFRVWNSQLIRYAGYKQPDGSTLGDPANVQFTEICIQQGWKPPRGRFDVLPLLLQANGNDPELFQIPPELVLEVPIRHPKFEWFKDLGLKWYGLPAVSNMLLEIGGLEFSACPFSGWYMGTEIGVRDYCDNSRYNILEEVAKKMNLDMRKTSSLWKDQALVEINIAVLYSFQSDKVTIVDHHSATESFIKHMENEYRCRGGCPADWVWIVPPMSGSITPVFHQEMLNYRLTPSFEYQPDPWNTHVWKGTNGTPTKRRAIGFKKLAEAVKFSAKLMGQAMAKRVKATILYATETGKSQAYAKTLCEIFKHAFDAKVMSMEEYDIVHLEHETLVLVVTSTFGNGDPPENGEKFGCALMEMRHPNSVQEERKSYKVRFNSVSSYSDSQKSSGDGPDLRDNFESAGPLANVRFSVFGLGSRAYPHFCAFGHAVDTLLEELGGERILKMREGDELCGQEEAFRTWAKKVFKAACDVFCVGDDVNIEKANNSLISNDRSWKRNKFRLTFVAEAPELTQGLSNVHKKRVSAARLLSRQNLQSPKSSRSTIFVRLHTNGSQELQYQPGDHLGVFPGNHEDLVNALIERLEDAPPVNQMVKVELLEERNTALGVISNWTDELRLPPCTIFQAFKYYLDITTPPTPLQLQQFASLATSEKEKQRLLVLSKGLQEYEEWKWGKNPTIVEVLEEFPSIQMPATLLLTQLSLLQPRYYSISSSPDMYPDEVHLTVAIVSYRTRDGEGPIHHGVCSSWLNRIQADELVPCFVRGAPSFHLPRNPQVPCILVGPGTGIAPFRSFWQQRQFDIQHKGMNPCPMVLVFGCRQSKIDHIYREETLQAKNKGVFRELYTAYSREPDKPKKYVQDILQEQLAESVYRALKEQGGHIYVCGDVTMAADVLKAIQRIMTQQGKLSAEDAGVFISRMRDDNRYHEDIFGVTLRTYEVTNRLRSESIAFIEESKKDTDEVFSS

For experiment [1], the target named is Nitric oxide synthase, inducible (Homo sapiens, UniProt P35228). Description: Inhibitory concentration against Inducible nitric oxide synthase.
The target in the next experiment is Nitric oxide synthase 1 (Homo sapiens, UniProt P29475). Description: Inhibitory concentration against Neuronal nitric oxide synthase.

For orientation: IC50 means the concentration that gives 50% inhibition. High values mean a need for much substance, low ones inhibition by little substance. With `NC1=NCCCOC1`, the concentration for half-maximal inhibition (IC50) (in experiment [1]; on Nitric oxide synthase 1) was 160 nM throughout.
